In patent US20260174721A1, “AGENT FOR RESTORING METAL HOMEOSTASIS” (Oxford Antibiotic Group GmbH, priority 2022, published 2026):

Tests used:
Type in all cases: in vivo
[1] = system: transgenic C. elegans strain CL2659; assay: β-amyloid test system: delay of paralysis in transgenic C. elegans strain CL2659 (Alzheimer testing); conditions: Caenorhabditis elegans, 48 h, read-out: Alzheimer: concentration range in which a delay in paralysis was observed, CL2659 stage L3 larvae, 48 hours; tested at 1 mg/ml, 100 μg/ml, 10 μg/ml; — = no effect even at 1 mg/ml
Method: For this purpose, stage L3 worm larvae were used at a density of 10-20 worms per well. The expression of β-amyloid in the muscle cells was induced by increasing the temperature, and the associated paralysis was recorded at regular intervals until the end of the test after 48 hours.
(§1) For this purpose, the above substances were tested at concentrations of 1 mg/ml, 100 μg/ml, and 10 μg/ml in comparison with quercetin as a […] control.

[2] = system: transgenic C. elegans strain NL5901; assay: α-synuclein test system: reduction of α-synuclein-GFP expression in transgenic C. elegans strain NL5901 (Parkinson testing); conditions: Caenorhabditis elegans, read-out: Parkinson: concentration range in which a reduction in α-synuclein expression was detectable, NL5901, GFP readout 24 to 48 hours; tested at 1 mg/ml, 100 μg/ml, 10 μg/ml; — = no effect even at 1 mg/ml
Method: The same substances as above were tested in a 96-well procedure in the initially mentioned screening assay using the nematode Caenorhabditis elegans (Pretsch et al., see above) in a standardized α-synuclein test system using the transgenic C. elegans strain NL5901 for their potential suitability as an agent for treating Parkinson's disease. This worm strain expresses human α-synuclein bound to green fluorescent protein (GFP) in all muscle cells. GFP labeling allows a direct detection of expressed protein levels using a multiplate reader for 24 to 48 hours.
For this purpose, the substances were again tested at concentrations of 1 mg/ml, 100 μg/ml, and 10 μg/ml, but this time in comparison to the initially mentioned Parkinson therapeutic agent levodopa as a control.

Caenorhabditis elegans = assay: C. elegans nematode assay, overall rating over the Alzheimer and Parkinson tests; conditions: read-out: Score, rating from the effective concentration in both tests
Method: The substances (1) to (41) and (101) to (108), prepared in the above synthesis examples or purchased, were tested for their potential suitability as an agent for treating Alzheimer's disease in a 96-well procedure in the initially mentioned screening assay using the nematode Caenorhabditis elegans (Pretsch et al., see above) in a standardized β-amyloid test system using the transgenic C. elegans strain CL2659. For this purpose, stage L3 worm larvae were used at a density of 10-20 worms per well. The expression of β-amyloid in the muscle cells was induced by increasing the temperature, and the associated paralysis was recorded at regular intervals until the end of the test after 48 hours.
as §1
The same substances as above were tested in a 96-well procedure in the initially mentioned screening assay using the nematode Caenorhabditis elegans (Pretsch et al., see above) in a standardized α-synuclein test system using the transgenic C. elegans strain NL5901 for their potential suitability as an agent for treating Parkinson's disease. […] GFP labeling allows a direct detection of expressed protein levels using a multiplate reader for 24 to 48 hours. […]

Measured: minimal effective concentration

O=C(O)CC(=O)OC12CC3CC(CC(C3)C1)C2 [(8), malonic acid adamantan-1-yl ester]
> 100 µg/mL: all assays above
